We go through two molecules from US9512126B2, “Substituted imidazopyridazines” (Bayer Intellectual Property GmbH, priority 2012, dated 2016).

By UniProt entry, the sequences of proteins in these tests, tags left out. Where a name states a change or a piece, a line headed by the entry shows the natural chain unless it says otherwise.
UniProt P33981: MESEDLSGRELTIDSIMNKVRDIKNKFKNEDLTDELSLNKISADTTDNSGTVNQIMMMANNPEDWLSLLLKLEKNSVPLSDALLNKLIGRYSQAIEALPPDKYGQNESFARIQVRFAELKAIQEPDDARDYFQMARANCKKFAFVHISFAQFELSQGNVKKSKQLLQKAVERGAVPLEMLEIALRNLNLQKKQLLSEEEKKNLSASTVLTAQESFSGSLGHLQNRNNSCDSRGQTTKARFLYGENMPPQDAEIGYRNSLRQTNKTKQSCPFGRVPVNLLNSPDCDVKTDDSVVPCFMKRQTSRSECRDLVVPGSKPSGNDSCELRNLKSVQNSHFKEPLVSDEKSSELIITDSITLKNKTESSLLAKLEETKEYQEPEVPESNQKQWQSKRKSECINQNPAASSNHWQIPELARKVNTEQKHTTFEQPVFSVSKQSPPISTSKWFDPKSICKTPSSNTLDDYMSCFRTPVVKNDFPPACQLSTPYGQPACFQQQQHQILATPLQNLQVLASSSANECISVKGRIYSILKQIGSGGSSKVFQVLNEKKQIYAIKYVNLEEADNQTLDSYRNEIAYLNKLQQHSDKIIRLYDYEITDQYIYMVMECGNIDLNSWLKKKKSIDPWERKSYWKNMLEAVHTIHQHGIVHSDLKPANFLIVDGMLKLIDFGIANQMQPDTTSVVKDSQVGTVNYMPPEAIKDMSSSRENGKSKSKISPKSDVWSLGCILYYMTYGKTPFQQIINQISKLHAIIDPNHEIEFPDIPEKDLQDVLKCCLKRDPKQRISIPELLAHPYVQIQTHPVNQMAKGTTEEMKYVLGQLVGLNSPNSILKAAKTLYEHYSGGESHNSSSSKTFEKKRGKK

This assay concerns the target human kinase Mps-1 (Homo sapiens (Human), UniProt P33981). In words: Mps-1 kinase assay (TR-FRET). It counts as biochemical. The following applies: N-terminally GST-tagged human full length recombinant Mps-1, 10 μM ATP. Here is the method:
The human kinase Mps-1 phosphorylates a biotinylated substrate peptide. Detection of the phosphorylated product is achieved by time-resolved fluorescence resonance energy transfer (TR-FRET) from Europium-labelled anti-phospho-Serine/Threonine antibody as donor to streptavidin labelled with cross-linked allophycocyanin (SA-XLent) as acceptor. Compounds are tested for their inhibition of the kinase activity.
N-terminally GST-tagged human full length recombinant Mps-1 kinase (purchased from Invitrogen, Karslruhe, Germany, cat. no PV4071) was used. As substrate for the kinase reaction a biotinylated peptide of the amino-acid sequence […] (C-terminus in amide form, purchased from Biosynthan GmbH, Berlin) was used.
The concentration of Mps-1 in the assay was adjusted to the activity of the enzyme lot and was chosen appropriate to have the assay in the linear range, typical enzyme concentrations were in the range of about 1 nM (final conc. in the 5 μl assay volume).
The resulting mixture was incubated 1 h at 22° C. to allow the binding of the phosphorylated peptide to the anti-phospho(Ser/Thr)-Europium-antibody. Subsequently the amount of phosphorylated substrate was evaluated by measurement of the resonance energy transfer from the Europium-labelled anti-phospho(Ser/Thr) antibody to the Streptavidin-XLent.
In general terms: In TR-FRET formats the signal depends on donor and acceptor labels being close together.

In general, IC50 refers to the concentration that gives 50% inhibition. Turning to `Cc1cc(-c2cnc3c(NCCC(F)(F)F)cc(C4(c5cccc(F)c5F)CC4)nn23)ccc1C(=O)NC1CC1` [Example 17, N-Cyclopropyl-4-{6-[1-(2,3-difluorophenyl)cyclopropyl]-8-[(3,3,3-trifluoropropyl)amino]imidazo[1,2-b]pyridazin-3-yl}-2-methylbenzamide], the IC50 worked out at 0.7 nM.
With `COc1ccc(C(F)(F)c2cc(NCCC(F)(F)F)c3ncc(-c4ccc(C(=O)NC5CC5)c(C)c4)n3n2)cc1` [Example 16, N-Cyclopropyl-4-{6-[difluoro(4-methoxyphenyl)methyl]-8-[(3,3,3-trifluoropropyl)amino]imidazo[1,2-b]pyridazin-3-yl}-2-methylbenzamide] the figure was 0.6 nM.
